Reference: ChEMBL document CHEMBL4627324, “Design and synthesis of novel 2-arylbenzimidazoles as selective mutant isocitrate dehydrogenase 2 R140Q inhibitors” (Bioorg Med Chem Lett, 2020)

Sequences of proteins named here, by UniProt entry; tags and fusion partners are left off. Residues count along the entry.
UniProt P48735, 40-452 R172K limits assumed: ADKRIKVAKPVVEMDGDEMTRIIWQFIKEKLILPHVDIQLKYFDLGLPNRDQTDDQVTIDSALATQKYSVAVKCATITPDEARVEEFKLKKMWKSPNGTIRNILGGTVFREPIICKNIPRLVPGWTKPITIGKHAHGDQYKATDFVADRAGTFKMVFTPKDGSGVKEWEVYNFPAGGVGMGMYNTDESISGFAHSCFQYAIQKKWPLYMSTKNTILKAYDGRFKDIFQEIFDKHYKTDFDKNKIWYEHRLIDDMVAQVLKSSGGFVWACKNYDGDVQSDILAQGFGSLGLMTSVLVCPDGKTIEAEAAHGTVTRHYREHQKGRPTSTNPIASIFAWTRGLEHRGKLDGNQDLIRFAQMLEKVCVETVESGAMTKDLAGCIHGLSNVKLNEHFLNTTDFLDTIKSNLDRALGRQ
UniProt P48735, 40-452 R140Q limits assumed: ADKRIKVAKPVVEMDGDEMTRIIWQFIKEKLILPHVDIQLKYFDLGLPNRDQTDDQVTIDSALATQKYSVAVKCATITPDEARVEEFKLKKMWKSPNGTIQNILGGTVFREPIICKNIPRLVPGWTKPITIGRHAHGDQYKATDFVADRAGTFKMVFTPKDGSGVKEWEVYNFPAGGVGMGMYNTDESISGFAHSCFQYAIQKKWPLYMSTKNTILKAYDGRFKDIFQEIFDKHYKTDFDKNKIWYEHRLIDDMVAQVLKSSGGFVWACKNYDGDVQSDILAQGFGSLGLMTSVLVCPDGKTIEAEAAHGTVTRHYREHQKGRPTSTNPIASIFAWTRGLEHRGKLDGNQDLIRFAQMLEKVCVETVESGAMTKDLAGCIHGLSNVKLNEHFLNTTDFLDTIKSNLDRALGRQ

What was measured:
[1] = target: Isocitrate dehydrogenase [NADP], mitochondrial (Homo sapiens, UniProt P48735, R172K); assay: Inhibition of IDH2 R172K mutant (unknown origin)
[2] = target: Isocitrate dehydrogenase [NADP], mitochondrial (Homo sapiens, UniProt P48735, R140Q); assay: Inhibition of IDH2 R140Q mutant (unknown origin)
[3] = target: T1, Isocitrate dehydrogenase [NADP], mitochondrial (Homo sapiens, UniProt P48735); assay: Inhibition of wild type IDH2 (unknown origin)
T1 sequence (P48735 whole entry): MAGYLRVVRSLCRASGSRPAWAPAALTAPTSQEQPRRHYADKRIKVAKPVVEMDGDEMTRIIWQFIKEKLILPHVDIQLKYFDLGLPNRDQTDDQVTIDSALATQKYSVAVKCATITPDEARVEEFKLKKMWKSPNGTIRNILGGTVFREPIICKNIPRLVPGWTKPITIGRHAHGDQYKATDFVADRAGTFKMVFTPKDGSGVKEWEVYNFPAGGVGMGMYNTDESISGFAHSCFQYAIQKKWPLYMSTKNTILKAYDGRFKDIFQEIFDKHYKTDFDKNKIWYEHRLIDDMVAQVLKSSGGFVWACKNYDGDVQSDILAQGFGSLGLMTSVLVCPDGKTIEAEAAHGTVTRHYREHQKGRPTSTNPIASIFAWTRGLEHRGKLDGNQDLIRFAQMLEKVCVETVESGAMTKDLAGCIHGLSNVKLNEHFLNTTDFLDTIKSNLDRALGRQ

With `O=C(Nc1cccc(C(F)(F)F)c1)Nc1cc(S(=O)(=O)NC2CC2)ccc1-c1ccsc1` the IC50 [1] was 10.4 µM, the IC50 [2] was 0.06 µM and the IC50 [3] was greater than 100 µM.
